Data: publication PMC10322725, “Assimilatory sulfate reduction in the marine methanogen Methanothermococcus thermolithotrophicus” (Nature Microbiology, 2023)

The chains behind the UniProt entries cited, without tags or fusion partners.
UniProt A0AA82WPC2, entry or part of it: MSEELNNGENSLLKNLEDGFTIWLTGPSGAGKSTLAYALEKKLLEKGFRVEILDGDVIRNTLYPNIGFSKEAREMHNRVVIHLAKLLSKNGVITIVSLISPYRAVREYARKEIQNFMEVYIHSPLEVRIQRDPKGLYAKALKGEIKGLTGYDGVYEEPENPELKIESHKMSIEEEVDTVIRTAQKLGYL
UniProt A0AA82WPC4, entry or part of it: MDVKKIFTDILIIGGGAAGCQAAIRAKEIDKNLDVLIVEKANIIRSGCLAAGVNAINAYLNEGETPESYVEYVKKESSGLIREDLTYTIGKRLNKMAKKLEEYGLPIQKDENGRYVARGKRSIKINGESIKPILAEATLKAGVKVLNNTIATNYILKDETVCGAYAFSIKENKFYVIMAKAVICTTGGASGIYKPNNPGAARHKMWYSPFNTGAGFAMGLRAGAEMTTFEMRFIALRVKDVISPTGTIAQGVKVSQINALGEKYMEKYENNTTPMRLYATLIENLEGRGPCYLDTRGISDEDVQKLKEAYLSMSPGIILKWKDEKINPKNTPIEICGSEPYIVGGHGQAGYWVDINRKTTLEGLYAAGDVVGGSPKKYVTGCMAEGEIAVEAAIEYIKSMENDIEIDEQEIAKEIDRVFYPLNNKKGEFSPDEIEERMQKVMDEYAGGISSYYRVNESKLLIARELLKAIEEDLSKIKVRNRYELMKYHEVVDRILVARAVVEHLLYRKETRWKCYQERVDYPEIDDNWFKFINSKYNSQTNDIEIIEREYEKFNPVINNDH

Key:
[1] = target: T1, MtAPSK (Methanothermococcus thermolithotrophicus, UniProt A0AA82WPC2); experiment: coupled NADH oxidation assay with MtATPS, pyrophosphatase, pyruvate kinase/lactate dehydrogenase; type: biochemical
T1 construct: gene cysC; recombinant in E. coli, codon-optimized gene in pET-28a(+) NdeI/BamHI, HisTrap, tag cleaved if necessary; homodimer

[2] = target: T2, MtPAPSR (Methanothermococcus thermolithotrophicus, UniProt A0AA82WPC4); experiment: coupled assay, oxidation of reduced methyl viologen at […] nm; type: biochemical
T2 construct: alpha and beta co-expressed in E. coli from pET-28a(+) NcoI/BamHI, C-terminal His-tag on alpha, anaerobic purification; alpha2beta2 heterotetramer; with Adenylylsulfate reductase subunit beta (PAPS reductase beta subunit)

Nc1ncnc2c1ncn2[C@@H]1O[C@H](COP(=O)(O)OS(=O)(=O)O)[C@@H](O)[C@H]1O [APS]
coupled NADH oxidation assay with MtATPS, pyrophosphatase, pyruvate kinase/lacta [1]: MtAPSK should be functional, as confirmed by the coupled enzyme assay
coupled assay, oxidation of reduced methyl viologen at 600 nm [2]: The specific enzymatic activity with APS as a substrate (that is, removal of MtAPSK)
